PMC6125627

Biological target: Flag-tagged EVI1-AQA (human) (UniProt Q03112)
Assay: co-IP; Flag-tagged EVI1 precipitated with FlagM2 magnetic beads from total cell protein extracts of transfected HEK293T cells, untreated or treated with H2O2; co-immunoprecipitated CtBP1 detected by western blot and signal quantified (n = 3)

C-terminal binding protein 1 (CtBP1) (from UniProt Q13363 1-440) (natural protein)
percent less co-immunoprecipitated CtBP1 than with EVI1-WT, after H2O2: 36.9%
